Results as given in ChEMBL document CHEMBL1156829 (Proc Natl Acad Sci U S A, 2008).

Test system: Huh-7
Test: NOVARTIS: Cytotoxicity against human hepatocellular carcinoma cell line (Huh7)
Assay type: toxicity, cell-based

SMILES | CC50 [µM]
Cc1nc(Nc2cccc([N+](=O)[O-])c2)nc(Nc2cccc([N+](=O)[O-])c2)c1[N+](=O)[O-] | > 100
O=[N+]([O-])c1ccc(NCCN(CCO)c2ccc([N+](=O)[O-])cc2[N+](=O)[O-])c(Cl)c1 | 36.1
